Chains of the proteins cited; added tags and fusions are not shown.
UniProt P35372, whole entry: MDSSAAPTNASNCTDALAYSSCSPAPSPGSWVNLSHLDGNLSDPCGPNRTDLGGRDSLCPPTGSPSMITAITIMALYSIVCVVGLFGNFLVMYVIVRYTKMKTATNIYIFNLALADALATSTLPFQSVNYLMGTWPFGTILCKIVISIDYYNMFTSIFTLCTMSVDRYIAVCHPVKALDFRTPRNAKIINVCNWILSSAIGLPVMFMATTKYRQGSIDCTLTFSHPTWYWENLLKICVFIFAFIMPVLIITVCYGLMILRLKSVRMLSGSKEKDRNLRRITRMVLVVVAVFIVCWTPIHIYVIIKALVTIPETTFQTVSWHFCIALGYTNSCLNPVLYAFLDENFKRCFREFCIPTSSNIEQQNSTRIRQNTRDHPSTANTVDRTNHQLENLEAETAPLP
UniProt P41145, whole entry: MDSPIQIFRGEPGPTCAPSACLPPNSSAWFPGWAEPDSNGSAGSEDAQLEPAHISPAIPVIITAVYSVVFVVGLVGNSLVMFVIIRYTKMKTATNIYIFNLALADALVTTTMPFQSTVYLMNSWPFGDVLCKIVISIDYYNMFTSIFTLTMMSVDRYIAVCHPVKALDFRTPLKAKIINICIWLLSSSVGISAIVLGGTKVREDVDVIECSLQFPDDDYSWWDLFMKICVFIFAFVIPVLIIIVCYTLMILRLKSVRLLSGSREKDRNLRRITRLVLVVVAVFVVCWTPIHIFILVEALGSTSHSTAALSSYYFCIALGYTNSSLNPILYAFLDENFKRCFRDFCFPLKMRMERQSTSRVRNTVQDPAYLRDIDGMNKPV

In patent US20050228023A1, “Agonist and antagonist ligands of the nociceptin receptor” (published 2005):

Legend:
μ opiate receptor = μ opiate receptor (Homo sapiens, UniProt P35372); assay: Opiate receptor binding affinity, μ; conditions: read-out: Ki (nM) μ
Experimental: (§1) Dose response curves for N/OFQ are conducted in the presence of varying concentrations of the antagonist, Schild plots are constructed, and pA2 values determined. Test compounds are also tested for binding affinity, as well as selectivity versus the μ, δ, and κ opioid receptors, as shown in Example 8.
(§2) The compounds of the invention were evaluated for binding affinity to the μ, κ, and δ opitate receptors, in a manner similar to that in Example 6.

κ opiate receptor = κ opiate receptor (Homo sapiens, UniProt P41145); assay: Opiate receptor binding affinity, κ; conditions: read-out: Ki (nM) κ
Experimental: as §1, §2

Row | Structure (SMILES) | Ki (μ opiate receptor) [nM] | Ki (κ opiate receptor) [nM]
1 | O=C1Cc2ccccc2N1C1CCN(C2CCC3CCCCC3C2)CC1 (stereo not drawn) | 10.6 | 52.1
2 | O=C1Cc2ccccc2N1C1CCN(CC2CCCCCCC2)CC1 | 14.4 | 229
3 | CC(c1ccc2c(c1)Cc1ccccc1-2)N1CCC(N2C(=O)Cc3ccccc32)CC1 (stereo not drawn) | 20.2 | 74.4
4 | CC1(C)C2CCC(CN3CCC(N4C(=O)Cc5ccccc54)CC3)C1C2 (stereo not drawn) | 27.8 | 175
5 | O=C1Cc2ccccc2N1C1CCN(C2CCCc3ccccc32)CC1 (stereo not drawn) | 21.2 | 21.5
6 | O=C1Cc2ccccc2N1C1CCN(C2CCCCCCC2)CC1 | 29.9 | 42.7
